{
  "sequences": {"note": "Chains of the proteins cited; added tags and fusions are not shown.", "UniProt P08173, whole entry, looked up": "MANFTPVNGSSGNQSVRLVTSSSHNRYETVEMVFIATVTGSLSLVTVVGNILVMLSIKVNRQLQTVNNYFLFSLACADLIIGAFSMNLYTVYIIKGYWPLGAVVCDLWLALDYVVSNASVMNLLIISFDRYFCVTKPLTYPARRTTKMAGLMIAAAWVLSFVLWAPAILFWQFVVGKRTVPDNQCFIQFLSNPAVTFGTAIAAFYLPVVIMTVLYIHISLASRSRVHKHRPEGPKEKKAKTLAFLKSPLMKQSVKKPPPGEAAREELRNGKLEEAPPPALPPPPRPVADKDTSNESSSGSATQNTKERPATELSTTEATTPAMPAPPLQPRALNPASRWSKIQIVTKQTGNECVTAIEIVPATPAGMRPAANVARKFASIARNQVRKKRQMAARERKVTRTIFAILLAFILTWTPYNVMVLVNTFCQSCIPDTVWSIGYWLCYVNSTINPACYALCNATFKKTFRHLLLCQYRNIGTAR"},
  "source": "patent US6699880B1",
  "about": "(priority 1999, dated 2004)",
  "target": "human m4 receptor (Homo sapiens, UniProt P08173)",
  "conditions": "maximum intracellular fluorescence intensity at test compound 10 mm; carbachol (10 mm) = 100%; in the presence of ATP (10 nM); hm4/Gi/Luc/CHO cells, Fluo-3",
  "data": [
    {"compound": "CCn1c(=O)n(C2CCN(C3CCN(C(=O)OC)CC3)CC2)c2ccccc21", "values": [
      {"measurement": "Agonist Activity (%) (M4 Receptors-Stimulating Activity)", "value": 94, "unit": "%"}
    ]},
    {"compound": "COC(=O)N1CCC(N2CCC(n3c(=O)n(S(C)(=O)=O)c4ccccc43)CC2)CC1", "values": [
      {"measurement": "Agonist Activity (%) (M4 Receptors-Stimulating Activity)", "value": 95, "unit": "%"}
    ]},
    {"compound": "COC(=O)N1CCC(N2CCC(n3c(=O)n(C(=O)OC)c4ccccc43)CC2)CC1", "values": [
      {"measurement": "Agonist Activity (%) (M4 Receptors-Stimulating Activity)", "value": 95, "unit": "%"}
    ]},
    {"compound": "CCCn1c(=O)n(C2CCN(C3CCN(C(=O)OC)CC3)CC2)c2ccccc21", "values": [
      {"measurement": "Agonist Activity (%) (M4 Receptors-Stimulating Activity)", "value": 101, "unit": "%"}
    ]}
  ]
}
